Screening results deposited in PubChem by National Center for Advancing Translational Sciences (NCATS).
uPA surface inh: blocks generation of uPA at the cell surface. cell surface uPA generation assay, qHTS. Potency, µM (highest dose often 38.3 µM), without a hit: at the highest dose activity change, negative = inhibition, most hits filed as inhibitors. actives 0.31% (n = 330,000); active = well fitted inhibition curve with a large enough effect; inconclusive = small, poorly fitted or top-dose-only effect; inactive = no such curve, though single readings can be large or run the other way; tested in mouse RAW 264.7 cells; also: potency is read from the fitted curve at half-maximal effect; % is scaled to controls: 0 for no effect and ±100 for the full control effect; nearly all actives have a fitted effect of over 55% in size
TDP1 inh: blocks human tyrosyl-DNA phosphodiesterase 1; recombinant TDP1, AlphaScreen DNA substrate cleavage; Potency, µM (titrated, usually from 130 µM), for the others: at the top dose activity change, negative = inhibition, hits mostly inhibitors; actives 0.28% (n = 350,000); AID 485290; also: potency is read from the fitted curve at half-maximal effect; % is scaled to controls: 0 for no effect and ±100 for the full control effect; nearly all actives have a fitted effect of over 40% in size
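AlphaScreen read-out: signal falls as enzyme removes the 3' tyrosine-FITC from a 5'-biotinylated DNA oligo (15 nM, 5 min, RT). Enzyme was E. coli-made recombinant Tdp1 at 1 nM, exposed to compound for 15 min beforehand; beads 10 ug/ml, 10 min.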
DT40 TDP1 CPT: DT40-hTDP1 cell growth loss with CPT | actives 12% (n = 420,000) | chicken DT40 Tdp1-/-;hTDP1 cells + 20 nM CPT, ATP luminescence, 48 h | Potency, µM (doses to about 46.2 µM), for inactives: at the top dose activity change, negative = growth inhibition, most hits filed as inhibitors; also: potency is read from the fitted curve at half-maximal effect; % is scaled to controls: 0 for no effect and ±100 for the full control effect; nearly all actives have a fitted effect of over 55% in size
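Chicken DT40 Tdp1-/- cells complemented with human TDP1, 400 cells/well, exposed to compounds plus 20 nM camptothecin for at least 48 h at 37 C; viability read as ATP content by CellTiter-Glo luminescence.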
miR-21 FLuc: miR-21 reporter, rising signal | HeLa miR-21 FLuc reporter, luciferase, 48 h | Potency, µM (top dose mostly 38.3 µM), inactives show at the top dose reporter change, positive = more light | 340,000 tested, under 10 active | AID 2288; active = well fitted rising curve with a large enough effect; inconclusive = small, poorly fitted or top-dose-only effect; inactive = no such curve, though single readings can be large or run the other way;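 further: % of control where 0% means no effect; miR-21 action dims this reporter so a rising signal means less miR-21 action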
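HeLa cells stably expressing CMV-driven firefly luciferase with a downstream miR-21 binding sequence, endogenously expressing miR-21, were treated with titrations (up to about 40uM final) for 48 hours at 37 degree Celsius. Luciferase luminescence was read after lysis.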
DT40 TDP1 no CPT: qHTS for Inhibitors of human tyrosyl-DNA phosphodiesterase 1 (TDP1): qHTS in cells in absence of CPT; DT40 Tdp1-/- hTDP1 cells, no CPT, ATP luminescence, 48 h; Potency, µM (series often up to 46.2 µM), for inactives: at the highest dose activity change, negative = growth inhibition, usual class: inhibitors; actives 15% (n = 420,000); also: potency is read from the fitted curve at half-maximal effect; % is scaled to controls: 0 for no effect and ±100 for the full control effect; nearly all actives have a fitted effect of over 55% in size
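Stably hTDP1-transfected Tdp1-null chicken DT40 cells were treated with library compounds minus camptothecin and grown for at least 48 hr at 37 °C, after which cellular ATP was quantified by luminescence.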
Active calls of the source: *; ? = inconclusive; · = no result given; [ ] = remark or other dose. Rows were chosen to be rich in hits. Some 16% of all compounds tested hit in one or more screens of this group. Unless noted, calls follow the shape of the dose curve; as a rule, active = well fitted curve in the direction sought with a large enough effect; inconclusive = small, poorly fitted or top-dose-only effect, or another doubt; inactive = no such curve, though single readings can be large; an effect the other way counts as inactive or inconclusive.

SMILES	uPA surface inh	TDP1 inh	DT40 TDP1 CPT	miR-21 FLuc	DT40 TDP1 no CPT
N=c1c(S(=O)(=O)c2ccc(Cl)cc2)cc2c(=O)n3ccccc3nc2n1Cc1ccco1	0%	·	?	1%	?
N=c1c(S(=O)(=O)c2ccccc2)cc2c(=O)n3ccccc3nc2n1C1CCCCC1	3%	·	26µM*	·	15µM*
N=c1c(S(=O)(=O)c2ccc(Br)cc2)cc2c(=O)n3ccccc3nc2n1Cc1ccco1	-1%	2%	9.2µM*	-7%	6.5µM*
O=C(c1cc(F)ccc1F)C1CCCN(C(=O)c2ccc(F)cc2Cl)C1 (stereo not drawn)	5%	-1%	-9%	16%	?
O=C(NCc1ccncc1)c1cccc(S(=O)(=O)Nc2ccc(F)cc2)c1	-1%	0%	?	·	?
Cc1ccc(C(=O)N/C(=C\c2ccco2)C(=O)NCC2CCCO2)cc1C (stereo not drawn)	-2%	9%	-1%	1%	-2%
CCCCNC(=O)Nc1ccc2c(c1)N(C)C(=O)c1ccccc1S2	18%	6%	?	1%	16µM*
COc1ccc(CNC(=O)Nc2ccc3c(c2)N(C)C(=O)c2ccccc2S3)cc1OC	·	6%	?	-22%	?
CCOC(=O)c1cccc(NC(=O)CN2C(=O)CC(C)(C)Sc3ccccc32)c1	·	1%	21µM*	9%	?
CC(=O)c1cccc(NC(=O)Nc2ccc3c(c2)N(C)C(=O)CS3)c1	-2%	6%	16µM*	24%	16µM*
CC(C)Oc1ccc(CNC(=O)Nc2ccc3c(c2)N(C)C(=O)c2ccccc2S3)cc1	·	9%	?	-7%	23µM*
CCCCOc1ccc(C(C)NC(=O)CCS(=O)(=O)Cc2ccccc2Cl)cc1 (stereo not drawn)	-3%	0%	?	-5%	-21%
CCOc1c(C)cc(S(=O)(=O)NCc2cccnc2)c(C)c1C	6%	·	?	5%	?
CCOC(=O)c1cccc(NC(=O)Nc2ccc3c(c2)N(C)C(=O)c2ccccc2S3)c1	·	9%	21µM*	17%	?
CCCNC(=O)Nc1ccc2c(c1)N(C)C(=O)c1ccccc1S2	8%	-2%	-25%	3%	?
CCOC(=O)c1ccccc1NC(=O)CN1C(=O)CCS(=O)(=O)c2ccccc21	10%	-6%[56.1 µM]	23µM*	-2%	21µM*
O=C(CN1C(=O)CCS(=O)(=O)c2ccccc21)Nc1ccc(Cl)cc1	-2%	1%	-2%	-10%	10%
COc1ccc(NC(=O)OC(CN2CCCCC2)C(F)(F)F)cc1 (stereo not drawn)	7%	2%	4%	-13%	-8%
COc1ccc(CC(=O)NCC2CCCN(Cc3ccccc3OC)C2)cc1 (stereo not drawn)	11%	·	-16%	0%	-30%
COc1cc(/C=C2\SC(=Nc3cccnc3)NC2=O)cc(OC)c1OC	0%	-8%	?	2%	?
COc1cc(N=c2ssnc2Cl)cc(OC)c1OC	-1%	6%	3.3µM*	29%	2.6µM*
Fc1ccc(N=c2ssnc2Cl)c(F)c1	-3%	-6%	7.3µM*	-2%	9.2µM*
Clc1ccc(N=c2ssnc2Cl)cc1	-5%	14%[56.1 µM]	10µM*	2%	15µM*
COc1ccc(N=c2ssnc2Cl)cc1	-6%	8%	7.3µM*	-17%	9.2µM*
COc1ccc(N=C2SCC(=O)N2C)cc1	·	·	-10%	·	4%
CC1(C)OCC([C@H](O)C2=CCCCC2=O)CO1	·	-2%	·	·	·
CN1CCN(S(=O)(=O)c2ccc(NC(=S)NC(=O)c3ccc(Cl)cc3)cc2)CC1	-3%	11%	?	-19%	?
Cc1ccc(N(C)C(=O)CCNC(=O)Cn2cnc3ccccc3c2=O)cc1C	-3%	·	-6%	3%	1%
N#Cc1ccc(Oc2c(Cl)cncc2Cl)cc1	3%	·	?	0%	-12%
Clc1nssc1=Nc1ccccc1	2%	9%	16µM*	-13%	15µM*

Whole records as entered above:
COc1ccc(CNC(=O)Nc2ccc3c(c2)N(C)C(=O)c2ccccc2S3)cc1OC is entered as uPA surface inh: ·; TDP1 inh: 6%; DT40 TDP1 CPT: ?; miR-21 FLuc: -22%; DT40 TDP1 no CPT: ?
CCOc1c(C)cc(S(=O)(=O)NCc2cccnc2)c(C)c1C is entered as uPA surface inh: 6%; TDP1 inh: ·; DT40 TDP1 CPT: ?; miR-21 FLuc: 5%; DT40 TDP1 no CPT: ?

Random excerpt: four records from the list
SMILES	uPA surface inh	TDP1 inh	DT40 TDP1 CPT	miR-21 FLuc	DT40 TDP1 no CPT
CC1(C)OCC([C@H](O)C2=CCCCC2=O)CO1	·	-2%	·	·	·
COc1ccc(N=C2SCC(=O)N2C)cc1	·	·	-10%	·	4%
CN1CCN(S(=O)(=O)c2ccc(NC(=S)NC(=O)c3ccc(Cl)cc3)cc2)CC1	-3%	11%	?	-19%	?
COc1ccc(N=c2ssnc2Cl)cc1	-6%	8%	7.3µM*	-17%	9.2µM*

Continued:
SMILES	uPA surface inh	TDP1 inh	DT40 TDP1 CPT	miR-21 FLuc	DT40 TDP1 no CPT
Clc1ss/c(=N\c2ccccn2)c1Cl	-8%	8%	-13%	-8%	-15%
N#Cc1ccc(N=c2ssnc2Cl)cc1	4%	2%	5.2µM*	-6%	7.3µM*
CC(=O)Cn1c(N2CCC(Cc3ccccc3)CC2)nc2c1c(=O)[nH]c(=O)n2C	-4%	1%	?	-4%	16µM*
CCCCCn1c(N2CCC(Cc3ccccc3)CC2)nc2c1c(=O)[nH]c(=O)n2C	10%	·	7.3µM*	·	?
CCCn1c(N2CCC(Cc3ccccc3)CC2)nc2c1c(=O)[nH]c(=O)n2C	-12%	5%	?	8%	?
C=C(C)Cn1c(N2CCC(Cc3ccccc3)CC2)nc2c1c(=O)[nH]c(=O)n2C	-1%	0%[56.1 µM]	?	-16%	?
CCOc1ccc(S(=O)(=O)N(CC(=O)N2CCc3ccccc32)Cc2ccco2)cc1	6%	2%	18µM*	1%	?
CN(CC(=O)N1CCc2ccccc21)S(=O)(=O)c1ccc(Cl)cc1	-5%	7%	-7%	-8%	-12%
COc1ccc(CC(NC(C)=O)C(=O)NC2CCN(c3nc(C)cc(C)c3C#N)CC2)cc1 (stereo not drawn)	13%	6%	-30%	-15%	?
Cc1c(C(=O)Nc2ccc(F)cc2)oc2ccc(S(=O)(=O)N3CCCCCC3)cc12	·	3%	18µM*	26%	18µM*
Cc1ccc(NC(=O)c2oc3ccc(S(=O)(=O)N4CCCCC4)cc3c2C)cc1C	·	5%	?	8%	-24%
Cc1c(Cl)cccc1NC(=O)c1oc2ccc(S(=O)(=O)N3CCCCCC3)cc2c1C	·	5%	?	0%	8.2µM*
COc1ccc(NC(=O)c2oc3ccc(S(=O)(=O)N4CCCCC4)cc3c2C)cc1Cl	·	3%	9.2µM*	-2%	13µM*
CC1(C)Oc2ccc3ccc(=O)oc3c2/C(=C/O)C1=O	10%	1%	-2%	-5%	-15%
Cc1cccc2cc(CN(C(=O)c3ccc(N4CCCCC4)cc3)C3CC3)c(N3CCC(O)CC3)nc12	·	·	-1%[9.04 µM]	·	-24%

Single values from the results shown:
Value of `Cc1cccc2cc(CN(C(=O)c3ccc(N4CCCCC4)cc3)C3CC3)c(N3CCC(O)CC3)nc12` in DT40 TDP1 no CPT: -24%
Value of `Clc1ccc(N=c2ssnc2Cl)cc1` in TDP1 inh: 14%[56.1 µM]

(listing goes on)
SMILES	uPA surface inh	TDP1 inh	DT40 TDP1 CPT	miR-21 FLuc	DT40 TDP1 no CPT
COc1ccccc1C(=O)N(Cc1cc2cccc(C)c2nc1N1CCC(O)CC1)C1CC1	·	·	-7%[9.04 µM]	·	16µM*
Cc1cccc2cc(CN(C(=O)c3ccc(-c4ccc(F)cc4)cc3)C3CC3)c(N3CCC(O)CC3)nc12	·	·	?	·	23µM*
CCOC(=O)N1CCN(C(=O)c2ccc3c(c2)sc2nc(-c4ccccc4)cn23)CC1	21%	-2%	?	-1%	?
CCOC(=O)C1CCN(C(=O)c2ccc3c(c2)sc2nc(-c4ccccc4)cn23)CC1	·	0%	6.5µM*	2%	23µM*
